# Ab-14 light chain CDR variants: yeast mating affinities

The target is the same throughout: PDVDLGDISGINAS, from the HR2 region of SARS-CoV-2 spike.

The variants keep the heavy chain, the linker and the frameworks of Ab-14 (scFv order VH, three GGGGS repeats, VL).
VH: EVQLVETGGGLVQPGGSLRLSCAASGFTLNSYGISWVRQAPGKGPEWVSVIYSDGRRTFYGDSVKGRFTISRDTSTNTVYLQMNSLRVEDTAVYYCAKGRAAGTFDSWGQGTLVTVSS
VL: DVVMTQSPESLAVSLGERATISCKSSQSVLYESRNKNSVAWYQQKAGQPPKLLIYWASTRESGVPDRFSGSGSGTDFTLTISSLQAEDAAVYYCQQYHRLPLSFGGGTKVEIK

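Phage display of a naive human antibody library on the peptide gave the parent. Library AAYL50 holds single substitutions and randomly drawn double and triple substitutions in the CDRs. In AlphaSeq, yeast of one mating type display the scFv and yeast of the other type display the target. Pairs that bind mate more often; barcode pairs of the diploids are counted by sequencing. Each replicate has its own calibration line, from reference interactions of the BCL2 family. The assay was run in three technical replicates.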

The parent's light chain CDRs are KSSQSVLYESRNKNSVA, WASTRES, QQYHRLPLS; each variant's own CDRs replace them letter for letter. Every variant below is changed at S28 of the VL (sequential numbering). Scale: log10 of Kd in nM, estimated from mating counts; low values are strong binders. A mean of the replicates is given; it leaves out those without a signal. Where no diploid with the target was found in that replicate, the entry reads "ND": below detection, most likely a poor binder, though not proof of it. For reference, the parent read 0.65 as the reference entry and 1.68 as a member of this library. Nonspecific signal, from three strains lacking the peptide, appeared in 18% of pairings of library AAYL50, centred on 4.19 (5% of these signals below 2.99); values are not corrected for it.

Variant YSSQFVLYESRNKNSVA | WASTRES | TQYHRLPLS showed ND, ND, 4.45.
Variant KSSQEVLYESRNKASVA | WASTRES | QQYHRLPLR showed 3.20, 2.93, 3.63 (mean 3.25).
Variant KSSQKKLYESRNKNSVA | WAWTRES | QQYHRLPLS showed 3.23, ND, ND.
Variant KESQDVLYESPNKNSVA | WASTRES | QQYHRLPLS showed 2.54, 2.65, 2.94 (mean 2.71).
Variant KYSQNVLYESRNKNSVA | WASTRES | QQYHRLPLS showed 0.44, 0.60, 0.52 (mean 0.52).
Variant KSSQTVLYESRNKESVA | WAFTRES | QQYHRLPLS showed ND, ND, 3.59.
Variant KSSQDVLYESRNKNSVA | WAVTRES | QQYHTLPLS showed 1.41, 1.57, 1.35 (mean 1.44).
Variant KSSQIVLYESRNKASVA | WASTRES | YQYHRLPLS showed ND, ND, ND.
Variant KSSQCVLYESRNKNSVA | WAGTRES | QQYHRLPAS showed ND, ND, ND.
Variant KSSQAVLYESRNKNSVA | WASTRES | QQFHRLPLS showed 2.03, 2.07, 1.66 (mean 1.92).
Variant KSSQNVLYESRNKSSVA | WASTRES | QQYHRLPLS showed 1.13, 1.20, 1.06 (mean 1.13).
Variant RSSQEVLYESRNKNSVA | WCSTRES | QQYHRLPLS showed ND, ND, ND.
Variant KSSQWVLYESRNKNSVA | WASTGES | QCYHRLPLS showed ND, ND, ND.
Variant KSSQIVLYESRNKNSVA | WADTRES | QKYHRLPLS showed 2.49, 2.53, 3.05 (mean 2.69).
Variant KSSQYVLYESRNKNSVA | WAYTRES | QQYLRLPLS showed ND, 3.75, 3.27 (mean 3.51).
Variant KSSQQVGYESRNKNWVA | WASTRES | QQYHRLPLS showed ND, ND, ND.
Variant KSSQYVLYESRNKNHVA | WASTRES | EQYHRLPLS showed 4.67, ND, 3.89 (mean 4.28).
Variant KSFQWVLYESRNVNSVA | WASTRES | QQYHRLPLS showed 0.71, 0.94, 0.77 (mean 0.81).
Variant KSSQTVLYESRNANSVA | WASTRES | KQYHRLPLS showed ND, ND, ND.
Variant KSSQKVLYESRNKRSVA | EASTRES | QQYHRLPLS showed 4.22, ND, ND.
Variant KSSQCVLYESRNKNSVA | WASTRES | RQYARLPLS showed 2.22, 2.22, 2.78 (mean 2.41).
Variant KSSQAVLYESRNKNSVW | DASTRES | QQYHRLPLS showed ND, ND, ND.
Variant KSSQLVLYESRNKNSVA | WASTRES | QQYQRLVLS showed ND, ND, ND.
Variant KSSPRVLYESRNKNSVA | WASTRES | QQYHRLPLS showed 1.04, 1.27, 1.25 (mean 1.19).
Variant KSSQWVLYESRNKNSVA | WASTAES | QQYHRNPLS showed ND, ND, ND.
Variant KSSQPVLYESRNKNSVA | WASWRES | QQYQRLPLS showed 1.89, 1.98, 1.66 (mean 1.84).
Variant KSSQKVLYESRNKNSVA | WASTRES | IQYHRLPLS showed 3.46, ND, ND.
Variant KSSQVVLYESRNINSVA | WASTRES | QQYHRLHLS showed ND, ND, ND.
Variant KSSQPVLYESRNKNSVA | WAVTRES | CQYHRLPLS showed 3.66, 2.98, 3.28 (mean 3.31).
Variant KSSQHVLYESRNKNSVA | WASTRES | QQEHRLMLS showed 1.12, 1.62, 1.36 (mean 1.37).
Variant KSSQAVLAESRNKNSVA | WASTRES | QQYHRLPLS showed 0.57, 0.74, 0.60 (mean 0.63).
Variant KSSQESLYESRNPNSVA | WASTRES | QQYHRLPLS showed 0.89, 1.09, 1.02 (mean 1.00).
Variant KSAQMVLYESRNKNSVA | WASTRES | QQCHRLPLS showed ND, ND, ND.
Variant KFSQEVLYESRNKNSVA | WASTRES | QQYHYLPLS showed -0.09, 0.27, 0.14 (mean 0.11).
Variant KSSQMVLYESRNKNSVA | WASTRES | QQYHRLPLS showed 0.76, 1.07, 1.07 (mean 0.97).
Variant KSSGWVLYESRNKNSVA | WASTSES | QQYHRLPLS showed ND, ND, ND.
Variant KSSQICLYESRNKNSVA | WASTRES | QQYHYLPLS showed 1.00, 1.53, 1.48 (mean 1.34).
Variant KNSQTVLYESRNKNSTA | WASTRES | QQYHRLPLS showed ND, 4.89, ND.
Variant KSSQFVLYEQRNKNSVA | WASTRES | QQYHRLYLS showed ND, ND, ND.
Variant KSSQTVLYESRNKNSVA | RPSTRES | QQYHRLPLS showed 5.83, ND, ND.
Variant KSSLMVLYESRNKNSVA | WASTRES | QQYHRPPLS showed 4.83, ND, 4.27 (mean 4.55).
Variant KSSQAVLYRSRTKNSVA | WASTRES | QQYHRLPLS showed ND, 2.26, 2.86 (mean 2.56).
Variant KSSQHVLYESRNKNSVA | WASTQES | NQYHRLPLS showed ND, ND, ND.
Variant KSSQFVLYEDRNKNSTA | WASTRES | QQYHRLPLS showed ND, ND, ND.
Variant KRSQIVLYESRNKNSVA | WASTRES | QFYHRLPLS showed ND, ND, ND.
Variant KSSQNVLYESRNKVSVA | WASTRES | QYYHRLPLS showed ND, 4.77, 5.62 (mean 5.20).
Variant KSSQMVLYESRNKNSHA | WASTRES | QQYHRLVLS showed ND, ND, ND.

A selection of 6 entries from above:

| CDR-L1 | CDR-L2 | CDR-L3 | replicates, log10 nM | log10 Kd (nM), mean |
|---|---|---|---|---|
| KSSQMVLYESRNKNSHA | WASTRES | QQYHRLVLS | ND, ND, ND | ND |
| KNSQTVLYESRNKNSTA | WASTRES | QQYHRLPLS | ND, 4.89, ND | 4.89 |
| KSSQWVLYESRNKNSVA | WASTGES | QCYHRLPLS | ND, ND, ND | ND |
| KESQDVLYESPNKNSVA | WASTRES | QQYHRLPLS | 2.54, 2.65, 2.94 | 2.71 |
| KSSQPVLYESRNKNSVA | WAVTRES | CQYHRLPLS | 3.66, 2.98, 3.28 | 3.31 |
| KSSQNVLYESRNKVSVA | WASTRES | QYYHRLPLS | ND, 4.77, 5.62 | 5.20 |

From the AlphaSeq antibody data of Engelhart et al. 2022 (doi:10.1038/s41597-022-01779-4), copy in the FLAb collection.